# scFv variants of Ab-14 (light chain) against a SARS-CoV-2 spike peptide

Binding partner: SARS-CoV-2 spike HR2 peptide, sequence PDVDLGDISGINAS.

Parent: Ab-14, a human scFv built as VH, a (GGGGS)3 linker, VL. Only the CDRs of the light chain vary.
VH: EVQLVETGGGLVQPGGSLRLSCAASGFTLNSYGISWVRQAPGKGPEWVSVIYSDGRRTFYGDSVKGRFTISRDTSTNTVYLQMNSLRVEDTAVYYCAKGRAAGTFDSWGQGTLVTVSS
VL: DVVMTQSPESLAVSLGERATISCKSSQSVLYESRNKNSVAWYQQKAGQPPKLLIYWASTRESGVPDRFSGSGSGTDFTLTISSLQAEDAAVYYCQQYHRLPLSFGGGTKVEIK

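This is the validation round: designs drawn from the data on random variants, tested in the same kind of assay. Group labels follow the data file (Ctrl: baseline library sampled from a position-specific scoring matrix, with some repeated check sequences; Rand: our label for a block that the file lists under HC and that is probably the random mutants of the ten best first-round binders; En: ensemble of fine-tuned language models; GP: Gaussian process model; GPLM: also part of the Gaussian process libraries; HC: hill climbing; Gen: genetic algorithm; Gibbs: Gibbs sampling; a sequence that several methods proposed may carry one label only). Affinity was read by AlphaSeq, a pooled yeast mating assay with surface-displayed partners. Binding brings cells together so that they mate, and sequencing counts the barcode pairs among the diploids. A regression on co-assayed BCL2-family reference pairs converts the normalised counts of each replicate to an apparent Kd. There are six technical replicates.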

Each variant is given by its three light chain CDRs, as the data file delimits them; those of the parent are KSSQSVLYESRNKNSVA, WASTRES, QQYHRLPLS. Scale: log10 of Kd in nM, estimated from mating counts; low values are strong binders. Averages over replicates are reported, and they cover detected replicates only. Where no diploid with the target was found in any replicate, the entry reads "nd": below detection, most likely a poor binder, though not proof of it.

| mean log10 Kd (nM) | replicates with signal | signal with controls | CDR-L1 | CDR-L2 | CDR-L3 | group |
|---|---|---|---|---|---|---|
| 1.15 | 6/6 | 0/18 | KLYMATGYESRNKDSIA | DNSTRGR | QQYHRLPLS | En_HC |
| 0.67 | 1/6 | 0/18 | SSSQSVLYESVNKNSVA | WAFTRES | QQYHRLPLS | Ctrl |
| 0.89 | 6/6 | 0/18 | KSSQSYLYESGNKNSVA | HASTRMS | QQYHRLPLS | GP_HC |
| -0.46 | 6/6 | 0/18 | KLSQGWLYESRNKNSVA | NASTRED | QQYHRLPLS | GP_HC |
| 1.86 | 6/6 | 2/18 | KLSQYVGGESRNKSSLA | DNSTRES | QQYQRLPLS | En_HC |
| 0.47 | 6/6 | 1/18 | MVYQAAMMGGTARNSIA | NAQMRPD | QQYHRLPLI | En_Gen |
| nd | 0/6 | 0/18 | TLMQVGGYESNNKNSIA | DLRTRES | QQYHRLPLS | En_HC |
| 0.45 | 6/6 | 0/18 | KIASSMNMTSHHINSVA | QSTTREE | QQYNHLPLS | En_HC |
| 2.19 | 6/6 | 1/18 | KSSASVLYESANKNSVA | WASTRES | QQYHRLPLS | Ctrl |
| 0.13 | 6/6 | 1/18 | KLSQSQLYESRQKNSVA | NASQRES | QQYHRLPLS | GP_Gen |
| -0.03 | 6/6 | 0/18 | KLDMSDLMESRNWNAVA | HASTREE | QQYHRLPLS | GP_Gibbs |
| 1.22 | 6/6 | 1/18 | KLDMFIPSQWEWDASIA | GATLRHT | QDYARLPLS | En_Gibbs |
| -0.13 | 6/6 | 1/18 | KVPFSVLYESRNKNAVA | QASTREK | QQYHRLPLS | GP_Gibbs |
| 0.17 | 6/6 | 2/18 | KLQQSVLYESRNKNSVA | NASYRMS | QQYHRLPLS | GP_Gen |
| 1.98 | 6/6 | 0/18 | KISQSVSYESRNKNSVA | WASTRES | QQYHRIPLS | Ctrl |
| 0.74 | 6/6 | 2/18 | RIFYGQERDIKHESSIA | NGMARVK | QQYHRLPLS | En_Gibbs |
| 0.10 | 6/6 | 0/18 | KSSQSWLYESRNKNSVA | GASRRES | QQYHRLPLS | GP_HC |
| 0.13 | 6/6 | 1/18 | KLSQATRMESRNKASVA | ENSTRGS | QQYFRLPLS | En_HC |
| 0.39 | 6/6 | 2/18 | HIDQVKAEQKTAENNIA | SGAQRVW | QQYSRLPFS | En_Gibbs |
| 0.12 | 6/6 | 1/18 | KSSQSVDYESPNKNSVA | SASTRES | QQYHRLPLS | Ctrl |
| 0.12 | 6/6 | 3/18 | KVSQSVLYESRNPNSVA | NASQRES | QQYHRLPLS | GP_Gen |
| nd | 0/6 | 0/18 | IVTQLMLWGWHAKNSIA | EAQTRLN | QQYERLPLF | En_Gen |
| -0.26 | 6/6 | 1/18 | KLSQSWLYESRNKNSVA | QGSTRES | QQYHRLPLS | GP_HC |
| -0.17 | 6/6 | 2/18 | KLSQSYEYESRNKNSVA | NASTRLS | QQYHRLPLS | GP_Gen |
| 0.13 | 6/6 | 1/18 | HISMMVGTKGYAKNSVA | NAETRED | QQYHRLPLS | En_HC |
| 0.47 | 6/6 | 0/18 | KSSQSVLEESRNKNSVA | GASTRVS | QQYHRLPLS | Ctrl |
| 0.62 | 6/6 | 0/18 | KLEWSQLYESRNCNSVA | NASTREE | QQYHRLPLS | GP_Gibbs |
| -0.16 | 6/6 | 0/18 | KLSQSELYESRNKNAVA | EASTRES | QQYHRLPLS | GP_Gen |
| 0.69 | 6/6 | 0/18 | QFEFTEEEGYQYSNNIA | NGEQRFS | QQYVKLPLV | En_Gibbs |
| 0.46 | 6/6 | 2/18 | KSSQSVLYESRNKNSVA | DDSTRES | QQYHRLPLS | Ctrl |
| 1.56 | 6/6 | 1/18 | KSSQSVLFESMNKNSVA | WASTRES | QQYHRLPLS | Ctrl |
| 0.70 | 6/6 | 1/18 | KVMQSMWYESRWKNSVA | NASQREE | QQYHRLPLS | GP_Gibbs |
| 2.09 | 6/6 | 3/18 | ILYDSVGTLSRNGNSVA | DNSTRES | QQYDRLPLS | En_HC |
| 0.38 | 6/6 | 0/18 | TISQSWFIESRNKNNVA | EMSTREN | QDYDRLPLS | En_HC |
| 0.23 | 6/6 | 1/18 | KSSQSYTYESRNKNSVA | GASTRES | QQYHRLPLS | GP_HC |
| 0.78 | 6/6 | 1/18 | KVSPSVQYEARQFNSVA | EASTREQ | QQYHRLPLS | GP_Gibbs |
| 2.47 | 2/6 | 0/18 | KSSQSAVYESRNKNQVA | WASTRES | QQYHRLPLK | Ctrl |
| 0.17 | 6/6 | 2/18 | KQQCGELYGSRNKNSVA | DASQREE | QQYHRLPLS | GP_Gibbs |
| 0.23 | 6/6 | 0/18 | KSSQSWLYESRNKNSVA | GASYRES | QQYHRLPLS | GPLM_HC |
| 2.30 | 2/6 | 1/18 | MLSMVTEGMRRKHNSVA | DNSTREP | QQYDRLPLS | En_Gen |
| 1.62 | 6/6 | 3/18 | ALSFEMESPHNHSNNVA | SASKLCM | QQYFTLPLS | En_Gibbs |
| 0.08 | 6/6 | 3/18 | LSSQSWLYESRNKNSVA | GASTRES | QQYHRLPLS | GP_HC |
| 2.25 | 2/6 | 0/18 | KLIQSVLYESRNCNSVA | WASTRES | QQYHRLPLS | Ctrl |
| -0.28 | 6/6 | 1/18 | KLDQSVLYESRNKNSVA | DASQRES | QQYHRLPLS | GP_Gen |
| 1.33 | 6/6 | 0/18 | KLSQITGHMSVSKNNVA | EMETREN | QQYDRLPLS | En_Gen |
| 0.15 | 6/6 | 2/18 | KLGTVTSYEMQNKNSVA | QMTTRES | QQYHRLPLS | En_HC |
| 0.03 | 6/6 | 1/18 | KVSQSWWYESRNKNSVA | NASTRES | QQYHRLPLS | GP_Gen |
| 1.34 | 6/6 | 1/18 | KSSQSVPYESRNKNSVA | EASTRES | QDYHRLPLS | GP_Gen |
| 2.01 | 6/6 | 2/18 | KQSFSGGGGSRNKNSVA | KASTRES | QQYHRLPLS | GP_Gibbs |
| -0.18 | 6/6 | 0/18 | KFQQMVMQEDRNKNSVA | QASTRLQ | QQYHRLPLS | GP_Gibbs |
| nd | 0/6 | 0/18 | SSSQSVLMESRNKNSVA | WASTRES | QQYHRIPLS | Ctrl |
| 0.17 | 6/6 | 1/18 | KLSQSVDYESRNKNSVA | NASTREV | QQYHRLPLS | GP_Gen |
| 1.53 | 6/6 | 2/18 | IFSQSVLMGNLTKNSVA | QASTRFN | QQYHRLPLI | En_HC |
| 0.62 | 6/6 | 0/18 | KWDQEVDGQSRNKNSVA | QASQREW | QQYHRLPLS | GP_Gibbs |
| 0.21 | 6/6 | 0/18 | KLVNFMNRGTHHTSNIA | DAALREE | QQYYRLPLA | En_Gen |
| 2.10 | 6/6 | 0/18 | KLLQTVNNGRYNRNNVA | HMTMRED | QQYFRLPLS | En_HC |
| 0.42 | 6/6 | 1/18 | GFSQDFYGERNMANQVA | DGNQLAN | QQYARLPLV | En_Gibbs |
| 0.05 | 6/6 | 4/18 | KSGYGVLYESRNKNSVA | GASTRES | QQYHRLPLS | GP_HC |
| 1.19 | 6/6 | 2/18 | HSSESVLSESRNQNSVA | NASTREI | QQYHILPLS | Ctrl |
| 2.86 | 2/6 | 1/18 | HFAHPWQSGYESKQNVA | NDSTVMT | QHYNRLPLS | En_Gibbs |
| 0.13 | 6/6 | 0/18 | MMSSLMGYESRHINNVA | QTSTRED | QQYDRLPLM | En_Gen |
| nd | 0/6 | 0/18 | KSSMCFLYESRNKNSVA | GASTRES | QQYHRLTWS | Rand |
| 1.82 | 6/6 | 0/18 | KSSQSVLYESRGKNSVA | WASTRES | QQYHTLPLS | Ctrl |
| -0.09 | 6/6 | 1/18 | KLQQSVLYESRNKNSVA | NASQRES | QQYHRLPLS | GP_Gen |

The first 9 entries again:

CDR-L1,CDR-L2,CDR-L3,group,mean log10 Kd (nM),replicates with signal,signal with controls
KLYMATGYESRNKDSIA,DNSTRGR,QQYHRLPLS,En_HC,1.15,6/6,0/18
SSSQSVLYESVNKNSVA,WAFTRES,QQYHRLPLS,Ctrl,0.67,1/6,0/18
KSSQSYLYESGNKNSVA,HASTRMS,QQYHRLPLS,GP_HC,0.89,6/6,0/18
KLSQGWLYESRNKNSVA,NASTRED,QQYHRLPLS,GP_HC,-0.46,6/6,0/18
KLSQYVGGESRNKSSLA,DNSTRES,QQYQRLPLS,En_HC,1.86,6/6,2/18
MVYQAAMMGGTARNSIA,NAQMRPD,QQYHRLPLI,En_Gen,0.47,6/6,1/18
TLMQVGGYESNNKNSIA,DLRTRES,QQYHRLPLS,En_HC,nd,0/6,0/18
KIASSMNMTSHHINSVA,QSTTREE,QQYNHLPLS,En_HC,0.45,6/6,0/18
KSSASVLYESANKNSVA,WASTRES,QQYHRLPLS,Ctrl,2.19,6/6,1/18

The authors averaged sequences with at least three values out of six and counted those with two or fewer as poor binders. A sequence measured in both rounds can read differently, since the two assays cover different ranges. The parent sequence was in this pool as ten entries: three were never detected, three once, and four in most replicates, with averages from 0.34 to 2.37. Empty control strains, which show no peptide, gave a signal in 4% of pairings with all light chain designs; the median was 2.64 and 95% of these signals were weaker than 1.59. No background was subtracted. Also given: how often the same scFv was detected with the empty control strains.

Values reported by Li et al. 2023, doi:10.1038/s41467-023-39022-2 (FLAb copy).